For the experiment, the target named is binding between SARS-CoV-2 Receptor Binding Domain (RBD) and Angiotensin Converting Enzyme 2 (ACE2) (Severe acute respiratory syndrome coronavirus 2, UniProt P0DTC2). Description: biochemical.

Molecules are shown by their SMILES.

For 1 compound, IC50 results are on record in patent publication US20240307333A1, “ANTI-VIRAL THERAPEUTIC AGENTS AND USES THEREOF” (priority 2021, published 2024).

The IC50 is the point on the concentration scale where inhibition reaches its midpoint. A high value points to weaker potency.

The compound `O=S(=O)(O)CCS` [sodium 2-mercaptoethane sulfonate] displayed an IC50 of 2700 µM. This lies in the millimolar range.
